High-throughput results (PubChem BioAssay)
Sampled rows, rich in hits. Any-hit rate of the full collection: about 2.3%.
Yeast UUG start: yeast start codon fidelity modulation; activity score, % at 18.7 µM; actives 0.13% (n = 350,000); S. cerevisiae UUG-firefly luciferase reporter, luminescence/redox ratio; AID 602363;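 active means replicate mean at a twofold rise or more, about +100% in these data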;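 further: firefly luciferase made from a UUG start codon reports start codon fidelity; reporter light over untreated wells divided by growth signal over untreated wells; some hits fall short of that in this replicate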
MC4R antagonist: human MC4R antagonism in cAMP assay | inhibition, % at 6.5 µM | MC4R-expressing cells, MTII-stimulated cAMP, LANCE TR-FRET | P32245 | AID 540295 | 360,000 tested, 0.48% active;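 active means inhibition above its plate's cutoff, the mean of tested wells on that plate plus 3 SD, cut at about 29% in these data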;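 further: 0% = Melanotan II alone and 100% = Melanotan II plus saturating MCL0020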
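Assay system: human MC4R-expressing U2OS cells; reagent: Melanotan II stimulation of cells; dosing: 6.5 µM single dose; timing: compound 30 min, challenge 1 h, detection 1 h; signal: TR-FRET cAMP assay; replicates: one well per compound, no replicates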
ARFGAP1 inh: inhibitors of rat ARFGAP1 | Q62848 | Arfgap1-stimulated ARF1 GTP hydrolysis, GDP FP detection | inhibition, % at 16.5 µM | 360,000 tested, 0.26% active | AID 651572;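 active means inhibition above a per-plate limit, mean inhibition of low control wells plus 3 SD, cut at about 25% in these data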;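 further: 0% = DMSO wells with enzyme and 100% = wells lacking Arfgap1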
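system = rat Arfgap1 catalytic domain, aa 1-136 | technique = FP, GDP Alexa 633 tracer displaced from anti-GDP antibody, 620/688 nm | compound = one concentration, 16.5 µM, DMSO 1.26% | medium = HEPES-based buffer, pH 7.5 | timing = compound-enzyme preincubation 20 min, reaction 120 min, detection 60 min, 25 °C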
ASAP1 inh: blocks human ASAP1-stimulated Arf1 GTP hydrolysis; 360,000 tested, 0.19% active; inhibition, % at 16.5 µM; GDP FP detection; Q9ULH1; in the data active means inhibition above about 25%;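 further: 0% = vehicle with enzyme and substrate and 100% = no enzyme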
MC4R barr agon: activates human MC4R beta-arrestin recruitment; U2OS MC4R beta-arrestin complementation, luminescence; percent of melanotan II response, DMSO zero; activation, % at 8.9 µM; 360,000 tested, 0.98% active; AID 540308;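 active means activation above a per-plate cutoff, the mean activation of sample wells on that plate plus 3 SD, cut at about 8% in these data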
NRP1-CendR mod: modulators of CendR peptide binding to human neuropilin-1 | O14786 | FAM-RPARPAR peptide binding to NRP-1, fluorescence polarization | inhibition, % at 25 µM | 360,000 tested, 0.85% active;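 active means inhibition or corrected inhibition above about 18%, plus a signal ratio from 0.5 to 1.5, limit read from the data, passing the limit was not always enough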
* = called active by the depositor; x = no result given.

mol	MC4R barr agon	ASAP1 inh	NRP1-CendR mod	MC4R antagonist	ARFGAP1 inh	Yeast UUG start
COc1ccc(C(C(=O)NC(C)(C)C)N(C(=O)CCC(=O)Nc2cc(C)on2)c2c(C)cccc2C)cc1 (centres undefined)	-1.9	-4.0	31.0*	11.8	-6.8	-23.7
COc1ccc2c(=O)c(-c3cnn(-c4ccccc4)c3)c(C)oc2c1	1.2	9.2	-0.4	-1.0	4.9	1.2
Cc1oc2c(C)c(O)ccc2c(=O)c1-c1cnn(-c2ccccc2)c1	28.6*	-2.9	-2.8	2.9	5.2	1.1
C[C@H]1CCCCO[C@H](CN(C)Cc2ccc(C(F)(F)F)cc2)[C@@H](C)CN([C@@H](C)CO)C(=O)c2cc(N(C)C)ccc2O1	x	x	x	x	x	5.1
COC(=O)c1cc2ccc(OC)c(OC)c2c(=O)s1	6.7	8.6	27.4*	-8.2	-3.4	1.3
CC1=C(C(=O)N2CCOCC2)CC(CC(=O)NCCc2ccccn2)C(=O)N1Cc1ccc(F)cc1 (centres undefined)	0.8	-2.5	1.0	7.3	2.4	-7.2
CC1=C(C(=O)N2CCOCC2)CC(CC(=O)NCCc2ccccn2)C(=O)N1Cc1ccccc1 (centres undefined)	x	9.0	26.5*	x	3.4	-8.6
O=C(C[C@H]1CC[C@@H]2[C@H](COC[C@H](O)CN2C(=O)c2ccncc2)O1)NC1Cc2ccccc2C1	x	x	x	x	x	5.4
COc1ccccc1/C=C/CN1CCSCC1	0.2	1.3	30.4*	-2.8	-8.8	-8.7
CN(C)c1ccc(C(=O)OCc2cc(=O)n3ccsc3n2)cc1	-0.7	-8.7	23.2*	-11.1	7.7	x
Cc1ccc(NC(=O)c2cc(-c3cc(F)ccc3OCC3CCCO3)n[nH]2)cc1NS(C)(=O)=O (centres undefined)	1.2	-4.5	27.9*	19.6	-9.6	-31.4
COc1cc(CNC(=O)c2cc(-c3cc(F)ccc3OCC3CCCO3)n[nH]2)cc(OC)c1 (centres undefined)	-2.5	-2.7	11.0	3.8	2.7	-14.2
Cc1cc(C)cc(NC(=S)N2CCC(c3nc4ccccc4s3)CC2)c1	8.5*	6.8	4.9	-3.5	6.6	-25.0
Cc1ccc(NC(=S)N2CCC(c3nc4ccccc4s3)CC2)cc1C	3.7	-11.4	3.1	5.2	0.8	-23.2
COc1ccccc1-c1ccc2c(c1)O[C@H](CN(C)C(C)=O)[C@H](C)CN([C@@H](C)CO)S2(=O)=O	x	x	x	x	x	5.6
O=C(Cc1ccccn1)N[C@@H]1CC[C@@H](CCn2cc(-c3cccnc3)nn2)O[C@H]1CO	x	x	x	x	x	-9.7
C[C@H](CO)N1C[C@H](C)[C@H](CN(C)CC2CCOCC2)Oc2cc(C#CC3CC3)ccc2S1(=O)=O	x	x	x	x	x	7.3
COc1ccc(C[C@H]2CN3C(=NC[C@@H]3Cc3ccccc3)N2CCNC(=O)c2ccc(C)c(Br)c2)cc1	22.8*	x	0.8	8.9	x	-2.1
C[C@H](CO)N1C[C@H](C)[C@H](CN(C)C(=O)C2CCCCC2)Oc2ncc(-c3cccnc3)cc2C1=O	x	x	x	x	x	4.7
CC(C)C#Cc1ccc2c(c1)O[C@@H](CN(C)C(=O)c1cccnc1)[C@H](C)CN([C@@H](C)CO)S2(=O)=O	x	x	x	x	x	85.8

Whole records as entered above. Screens in order: MC4R barr agon	ASAP1 inh	NRP1-CendR mod	MC4R antagonist	ARFGAP1 inh	Yeast UUG start
Cc1ccc(NC(=O)c2cc(-c3cc(F)ccc3OCC3CCCO3)n[nH]2)cc1NS(C)(=O)=O (centres undefined) as listed: 1.2	-4.5	27.9*	19.6	-9.6	-31.4
COc1ccccc1-c1ccc2c(c1)O[C@H](CN(C)C(C)=O)[C@H](C)CN([C@@H](C)CO)S2(=O)=O as listed: x	x	x	x	x	5.6
CN(C)c1ccc(C(=O)OCc2cc(=O)n3ccsc3n2)cc1 as listed: -0.7	-8.7	23.2*	-11.1	7.7	x
COc1ccc(C(C(=O)NC(C)(C)C)N(C(=O)CCC(=O)Nc2cc(C)on2)c2c(C)cccc2C)cc1 (centres undefined) as listed: -1.9	-4.0	31.0*	11.8	-6.8	-23.7
COc1ccc(C[C@H]2CN3C(=NC[C@@H]3Cc3ccccc3)N2CCNC(=O)c2ccc(C)c(Br)c2)cc1 as listed: 22.8*	x	0.8	8.9	x	-2.1

Following part:
mol	MC4R barr agon	ASAP1 inh	NRP1-CendR mod	MC4R antagonist	ARFGAP1 inh	Yeast UUG start
O=C(NC[C@H]1[C@H](c2ccccc2)[C@@H](CO)N1Cc1cccnc1)c1ccccn1	x	x	x	x	x	12.7
Cc1ccc2c(c1)c1nnc(SCC(=O)N3CCCc4ccccc43)nc1n2CC(=O)O	-0.2	3.2	23.7*	12.1	-7.9	x
C/C(=N\NC(=O)c1cc(-c2cccs2)nc2ccccc12)c1ccccn1	-2.2	1.9	30.2*	-10.3	5.1	-34.3
COc1ccc(-c2ccc3c(N)c(C(=O)c4cccc(OC)c4)sc3n2)cc1	0.4	-1.0	-41.6	-5.4	7.3	-19.6
COc1ccc(C(=O)c2sc3nc(-c4ccc(OC)cc4)ccc3c2N)cc1	9.2*	2.6	-30.4	18.8	3.6	x
C[C@H]1CN([C@@H](C)CO)C(=O)c2cc(NC(=O)C3CCCCC3)ccc2O[C@H]1CN(C)CC1CC1	x	x	x	x	x	-9.4
Cc1ccc(S(=O)(=O)N2CCC(=O)N(CCOCc3cccc(F)c3)CC2)cc1	8.4*	-6.0	6.4	0.9	2.1	-16.8
Cc1ccc(S(=O)(=O)N2CCC(=O)N(C(COCc3cccc(Cl)c3)C(C)C)CC2)cc1 (centres undefined)	-0.2	-5.6	5.8	4.4	-0.1	-7.1
Cc1ccc(S(=O)(=O)N2CCC(=O)N(C(COCc3cccc(C)c3)C(C)C)CC2)cc1 (centres undefined)	-1.2	-0.4	24.4*	-3.4	-3.1	7.3
Cc1ccc(S(=O)(=O)N2CCC(=O)N([C@H](COCc3cccc(Cl)c3)C(C)C)CC2)cc1	x	3.5	-1.7	x	0.9	x
Cc1ccc(S(=O)(=O)N2CCC(=O)N(CCOCc3cccc(Cl)c3)CC2)cc1	1.6	-0.8	-2.2	17.7	-8.4	-7.5
Cc1ccc(S(=O)(=O)N2CCC(=O)N(C(COCc3cccc(C(F)(F)F)c3)C(C)C)CC2)cc1 (centres undefined)	-0.5	x	22.8*	5.0	x	-6.8
CO[C@H]1CN(C)C(=O)c2cc(NC(=O)Nc3ccccc3F)ccc2OC[C@H](C)N(C)C[C@@H]1C	x	x	x	x	x	3.6
CN(C)C(=O)c1ccc(-c2ccc([C@H]3[C@@H](CO)N4CCCCN(C(=O)C5CCCC5)C[C@@H]34)cc2)cc1	x	x	x	x	x	7.7
Cn1cnc(S(=O)(=O)N2C[C@@H](O)COC[C@@H]3O[C@H](CC(=O)NCc4cc(F)cc(F)c4)CC[C@H]32)c1	x	x	x	x	x	6.4
COc1cccc(C2CC(c3ccc(Cl)cc3Cl)Nc3nc(N)nn32)c1 (centres undefined)	9.2*	6.7	8.3	11.4	7.4	-6.5
COc1cccc(C2CC(c3ccccc3Cl)Nc3nc(N)nn32)c1 (centres undefined)	3.0	-9.2	1.2	10.1	6.8	-20.6
C[C@H](CO)N1C[C@H](C)[C@@H](CN(C)Cc2ccccn2)Oc2ncc(C#CC(C)(C)O)cc2C1=O	x	x	x	x	x	-9.0
C[C@@H]1CN([C@@H](C)CO)C(=O)c2cc(NC(=O)c3ccncc3)ccc2O[C@@H]1CN(C)C(=O)Nc1ccc(C(F)(F)F)cc1	x	x	x	x	x	-2.4
CCOC(=O)c1csc(NC(=O)c2ccc3c(c2)OCCO3)n1	-0.4	x	28.7*	8.4	x	-8.9
COc1ccc(CN(C)C[C@@H]2Oc3c(NS(=O)(=O)c4cn(C)cn4)cccc3C(=O)N([C@H](C)CO)C[C@@H]2C)cc1	x	x	x	x	x	-9.0
Cc1noc(C)c1NC(=O)N(C)C[C@@H]1Oc2c(NC(=O)Nc3ccc(F)cc3)cccc2C(=O)N([C@H](C)CO)C[C@@H]1C	x	x	x	x	x	1.4
CC1=C(C(=O)NCc2ccc(Cl)cc2)C2(CCC(C)CC2)OC1=O (centres undefined)	1.6	-11.6	37.1*	-0.9	-0.2	0.2
